According to PubChem BioAssay (Tox21):
Several values for one entry are separate records, joined by “and”; a condition that tells them apart may be missing. Equal values may be shown once. The entries are a selection whose mix differs from that of the whole data set. Inconclusive results are not listed. Activity calls are given as the source filed them. Unless noted, the call rests on the fitted dose curve; in most records, active means well fitted curve in the direction sought with a large enough effect in the repeat runs; inconclusive means weak or mixed curves; inactive means no such curve, though single readings can be large; an effect the other way counts as inactive or inconclusive.

By UniProt entry, the sequences of proteins in these tests, tags left out.
UniProt P11473, whole entry: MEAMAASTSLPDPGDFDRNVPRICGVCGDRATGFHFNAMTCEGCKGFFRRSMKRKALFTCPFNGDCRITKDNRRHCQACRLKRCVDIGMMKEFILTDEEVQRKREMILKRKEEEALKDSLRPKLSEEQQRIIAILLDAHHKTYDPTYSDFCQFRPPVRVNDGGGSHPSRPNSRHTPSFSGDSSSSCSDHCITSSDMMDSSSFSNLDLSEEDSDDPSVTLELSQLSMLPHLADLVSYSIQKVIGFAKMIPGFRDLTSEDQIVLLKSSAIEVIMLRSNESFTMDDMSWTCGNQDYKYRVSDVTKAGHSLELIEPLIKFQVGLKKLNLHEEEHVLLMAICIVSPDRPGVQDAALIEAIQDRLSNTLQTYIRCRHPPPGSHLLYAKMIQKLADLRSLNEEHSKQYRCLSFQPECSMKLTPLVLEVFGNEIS

What was measured:
[1] = qHTS assay to identify small molecule antagonists of the farnesoid-X-receptor (FXR) signaling pathway - cell viability counter screen (AID 743221; active means well fitted cell-killing curve with a large enough effect in the repeat runs, not every such curve was filed as active; further: on the % scale 0 is the no-effect control and ±100 the full control effect; nearly all actives have a fitted effect of over 50% in size); settings: FXR-bla HEK293T viability, CellTiter-Glo luminescence, 16 h
Outline: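 Cytotoxicity counter screen run in the FXR-bla reporter wells: HEK 293T cells exposed to compound with 50 uM (final) chenodeoxycholic acid for 16 h, 37 C, then viability measured by CellTiter-Glo luminescence after 30 min, room temperature.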

[2] = biological target: Vitamin D3 receptor (Homo sapiens) (UniProt P11473); assay: qHTS assay to identify small molecule antagonists of the vitamin D receptor (VDR) signaling pathway (AID 743223; active means well fitted inhibition curve with a large enough effect in the signal ratio in the repeat runs, not every such curve was filed as active; the % refers to the signal ratio; further: on the % scale 0 is the no-effect control and ±100 the full control effect); settings: VDR-UAS-bla HEK293T, beta-lactamase FRET ratio, 16 h
Outline: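 Antagonist mode: compound added to VDR-bla cells alongside agonist 1alpha,25-dihydroxyvitamin D3 (3 nM final), incubation 16 h at 37C. Read-out is LiveBLAzer FRET fluorescence, 2 h at room temperature.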

[3] = qHTS assay to identify small molecule antagonists of the vitamin D receptor (VDR) signaling pathway - cell viability counter screen (AID 743225); settings: VDR-bla HEK293T viability, CellTiter-Glo luminescence, 16 h; further: on the % scale 0 is the no-effect control and ±100 the full control effect; nearly all actives have a fitted effect of over 50% in size
Outline: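 Cytotoxicity counter screen read by CellTiter-Glo luminescence (30 min, room temperature) in the same wells as the VDR-bla antagonist readout. HEK 293T VDR-UAS-bla cells had 16 h at 37C with compound and 3 nM (final) 1-alpha,25-dihydroxyvitamin D3, then 2 h with FRET substrate.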

[4] = qHTS assay to identify small molecule antagonists of the retinoid-related orphan receptor gamma (ROR-gamma) signaling pathway - cell viability counter screen (AID 1159520); settings: Tet-on RORgamma CHO cells viability, ATP luminescence, 16 h; at 92.4 µM (top of the series) unless noted; further: on the % scale 0 is the no-effect control and ±100 the full control effect; nearly all actives have a fitted effect of over 50% in size
Outline: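 Tet-on ROR gamma CHO cells were given compounds for 2 hr, then doxycycline hyclate at 1 uM final, and incubated 16 hr at 37 C. Viability was measured as ATP content by CellTiter-Glo luminescence.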

[5] = qHTS assay to identify small molecule antagonists of the retinoid acid receptor (RAR) signaling pathway - cell viability counter screen (AID 1159551); settings: C3RL4 cells viability, ATP luminescence (CellTiter-Glo), 6 h; at 92.4 µM (top of the series) unless noted; further: on the % scale 0 is the no-effect control and ±100 the full control effect; nearly all actives have a fitted effect of over 35% in size
Outline: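 Cells (C3RL4) are plated, incubated overnight, dosed with compound in DMSO, then given retinol at 1 uM final. After 6 h at 37 C, CellTiter-Glo is added and luminescence read following 30 min at room temperature.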

[6] = biological target: Nuclear receptor ROR-gamma (Homo sapiens) (UniProt P51449); assay: qHTS assay to identify small molecule antagonists of the retinoid-related orphan receptor gamma (ROR-gamma) signaling pathway (AID 1159521;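 further: CHO cells with doxycycline inducible ROR-gamma driving an RORE luciferase reporter; top concentration of the series differs between compounds; on the % scale 0 is the no-effect control and ±100 the full control effect; nearly all actives have a fitted effect of over 50% in size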); settings: Tet-on RORgamma CHO cells, RORE-luciferase, 16 h; at 92.4 µM (top of the series)
[7] = qHTS assay to identify small molecule agonists of the AP-1 signaling pathway - cell viability counter screen (AID 1159525; calls by dose curve; further: nearly all actives have a fitted effect of over 55% in size); settings: ME-180 AP-1-bla cells viability, ATP luminescence, 5 h; at 76.8 µM (top of the series) unless noted
Outline: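 Same-well cytotoxicity counter screen of the Tox21 10K library in ME-180 cells. The readout is ATP-dependent luminescence after 5 h compound treatment. Data are normalised to DMSO and tetra n-octyl ammonium bromide controls.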

[8] = qHTS assay to identify small molecule agonists of the AP-1 signaling pathway (AID 1159526; calls by dose curve; further: on the % scale 0 is the no-effect control and ±100 the full control effect); settings: ME-180 (cervical carcinoma) AP-1-bla reporter, beta-lactamase FRET ratio, 5 h; at 76.8 µM (top of the series)
[9] = qHTS assay to identify small molecule agonists of the RXR signaling pathway - cell viability counter screen (AID 1159529); settings: RXR-alpha-bla HEK293T viability, CellTiter-Glo, 16 h; at 76.8 µM (top of the series)
Outline: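 CellTiter-Glo luminescence gave viability in the wells also read for beta-lactamase. Cells (RXR-alpha-UAS-bla HEK 293T, 2% charcoal-stripped FBS medium) had 5 hr plating, then 16 hr compound exposure at 37 C; tetraoctyl ammonium bromide served as positive control.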

[10] = qHTS assay to identify small molecule antagonists of the retinoic acid receptor (RAR) signaling pathway (AID 1159552); settings: C3RL4 RARE luciferase reporter, retinol-stimulated, 6 h
Outline: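 Luminescent RARE reporter read-out in C3RL4 cells: 6 hr co-treatment at 37 C of test compounds with retinol at 1 uM final. Cells plated overnight beforehand; luciferase reagent incubated 30 min at room temperature before reading.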

[11] = qHTS assay to identify small molecule agonists of the NFkB signaling pathway - cell viability counter screen (AID 1159515; calls by dose curve; further: on the % scale 0 is the no-effect control and ±100 the full control effect; nearly all actives have a fitted effect of over 55% in size); settings: NFkB-bla ME-180 viability, CellTiter-Glo luminescence, 5 h; at 61 µM (top of the series)
Outline: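 Cells are seeded (2,000 NFkB-bla ME-180 per well), rested overnight, and dosed with DMSO-dissolved compounds for 5 hr at 37 C. Viability is then read by CellTiter-Glo luminescence after 30 min at room temperature.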

[12] = qHTS assay to identify small molecule agonists of the retinoic acid receptor (RAR) signaling pathway (AID 1159553); settings: C3RL4 RARE luciferase reporter, agonist, 6 h; at 73.3 µM (top of the series); further: on the % scale 0 is the no-effect control and ±100 the full control effect
Outline: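 Seed C3RL4 reporter cells at 1,000 per well and incubate overnight at 37 C. Add compounds in DMSO, incubate 6 hr. Add luciferase reagent, wait 30 min at room temperature, read luminescence.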

[13] = qHTS assay to identify small molecule antagonists of the estrogen related receptor (ERR) signaling pathway - cell viability counter screen (AID 1224818); settings: ERR reporter cell line viability counter screen; at 92.2 µM (top of the series); further: on the % scale 0 is the no-effect control and ±100 the full control effect
Outline: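 ERR cells, 2,000/well; 6 h settle at 37 C/5% CO2; compound pin transfer (DMSO); 17.5 h at 37 C; CellTiter-Fluor, 30 min, fluorescence read.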

[14] = qHTS assay to identify small molecule antagonists of the estrogen related receptor (ERR) signaling pathway (AID 1224819); settings: ERR reporter cell line, luciferase inhibition; at 92.2 µM (top of the series)
Outline: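 qHTS in ERR cells, 2,000/well, 1536 format. Cpd (DMSO) added after 6 h settle, 18 h 37 C. One-Glo luminescence, 30 min RT.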

[15] = qHTS assay to identify small molecule agonists of the estrogen related receptor (ERR) signaling pathway (AID 1224820); settings: ERR reporter cell line, luciferase agonist mode; at 92.2 µM (top of the series); further: on the % scale 0 is the no-effect control and ±100 the full control effect
Outline: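 Luminescence readout (One-Glo, 30 min RT) from NTP-supplied ERR cell line exposed to compounds for 18 h at 37 C. Cells seeded 2,000 per well and pre-incubated 6 h before pin-tool compound transfer.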

[16] = test system: estrogen-related receptor alpha (ERRalpha) with PGC-1alpha coactivator, human; assay: qHTS assay to identify small molecule antagonists of the estrogen related receptor signaling pathway with the pleiotropic PPARgamma coactivator (PGC) (AID 1224821; calls by dose curve); settings: ERR/PGC reporter cell line, luciferase, antagonist mode; at 92.2 µM (top of the series)
Outline: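 PGC/ERR reporter cells; 6 h pre-incubation 37 C/5% CO2; pin-tool compound in DMSO, 18 h 37 C; One-Glo added, 30 min RT; luminescence read. qHTS antagonist mode.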

[17] = qHTS assay to identify small molecule antagonists of the estrogen related receptor signaling pathway with the pleiotropic PPARgamma coactivator (PGC) cell viability counter screen (AID 1224822); settings: ERR/PGC reporter cell line viability counter screen; at 92.2 µM (top of the series)
Outline: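 Multiplexed viability counter screen run in PGC/ERR cells treated with compounds for 17.5 h at 37 C; live-cell protease signal measured by CellTiter-Fluor fluorescence.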

[18] = qHTS assay to identify small molecule agonists of the estrogen related receptor signaling pathway with the pleiotropic PPARgamma coactivator (PGC) (AID 1224823); settings: ERR/PGC reporter cell line, luciferase agonist mode; at 92.2 µM (top of the series); further: on the % scale 0 is the no-effect control and ±100 the full control effect
Outline: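 Luminescence readout (One-Glo, 30 min RT) from PGC/ERR cell line treated 18 h at 37 C with pin-tool-delivered DMSO compound solutions; cells plated 6 h before dosing. Quantitative HTS format.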

[19] = qHTS assay to identify small molecule agonists of the endoplasmic reticulum stress response signaling pathway (AID 1159516; active means well fitted activation curve with a large enough effect in the signal ratio in the repeat runs, not every such curve was filed as active; the % refers to the signal ratio; further: on the % scale 0 is the no-effect control and ±100 the full control effect); settings: ESRE-bla HeLa, ER stress beta-lactamase reporter, 5 h; at 61 µM (top of the series)
Outline: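 Cells are seeded at 1,500 per well and incubated overnight. Compounds in DMSO are added for 5 hr at 37 C, then beta-lactamase FRET substrate for 2 hr at room temperature, and fluorescence at 460 and 530 nm is measured.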

[20] = qHTS assay to identify small molecule agonists of the endoplasmic reticulum stress response signaling pathway - cell viability counter screen (AID 1159517; calls by dose curve); settings: ESRE-bla HeLa viability, CellTiter-Glo luminescence, 5 h; at 61 µM (top of the series)
Outline: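 Steps: seed 1,500 ESRE-bla HeLa cells per well; incubate overnight at 37 C, 5% CO2; add compounds in DMSO for 5 hr; run FRET substrate 2 hr RT; add CellTiter-Glo, wait 30 min, read luminescence.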

Cc1ccc([N+](=O)[O-])c([N+](=O)[O-])c1
inactive: activity change, negative = cytotoxicity ([1]; at 62.6 µM (top of the series)) -24.3% | activity change, negative = cytotoxicity ([1]; at 81.1 µM (top of the series)) 2.27% | activity change, negative = inhibition ([2]; at 61 µM (top of the series)) 24.5% | activity change, negative = inhibition ([2]; at 78.8 µM (top of the series)) 10.5% | viability change, negative = cytotoxic ([3]; at 61 µM (top of the series)) 7.25% | viability change, negative = cytotoxic ([3]; at 78.8 µM (top of the series)) 3.02% | activity, negative = cytotoxicity [4] -10.3% and -3.91% | activity change, negative = cytotoxicity [5] 0.61%

N#CBr
inactive: activity, negative = cytotoxicity [4] 2.81% | activity change, negative = inhibition [6] 23.8% | viability change, negative = cytotoxic [7] 1.88% | activation [8] -7.65% | activity change, negative = cytotoxicity [9] -3.07% | activity change, negative = cytotoxicity [5] 0.78% | activity, negative = inhibition ([10]; at 92.4 µM (top of the series)) 58.1%

Cc1cccc([N+](=O)[O-])c1[N+](=O)[O-]
inactive: activity, negative = cytotoxic [11] -15.7% | activity, negative = cytotoxicity [4] 0.522% [at 42.5 µM] | viability change, negative = cytotoxic [7] 1.23% [at 35.3 µM] | activity change, negative = cytotoxicity [5] -3.04% [at 42.5 µM] | activity, negative = inhibition ([10]; at 42.5 µM (top of the series)) 9.41% | activation [12] 1.34% | viability change, negative = cytotoxic [13] 13.9% | activity change, negative = inhibition [14] -8.77% | activation [15] -10.1% | activity change, negative = inhibition [16] -0.186% | viability change, negative = cytotoxic [17] 5.68% | activation [18] -3%

CP(=O)(O)OCCC[Si](O)(O)O
inactive: activity change, negative = cytotoxicity ([1]; at 62.6 µM (top of the series)) 13.8% | viability change, negative = cytotoxic ([3]; at 61 µM (top of the series)) 8.12% | activity, negative = cytotoxic [11] 2.24% | activation [19] -2.01% | activity change, negative = cytotoxicity [20] 3.12% | activity, negative = cytotoxicity [4] 8.35% | viability change, negative = cytotoxic [7] 17.2% | activation [8] 2.61% | activity change, negative = cytotoxicity [9] 10.2% | activity change, negative = cytotoxicity [5] 0.396% | activity, negative = inhibition ([10]; at 92.4 µM (top of the series)) 3.33% | activation [12] 0.394%

CCOP(=O)(CC)OCC
inactive: activity change, negative = cytotoxicity ([1]; at 62.6 µM (top of the series)) -0.175% | activity change, negative = inhibition ([2]; at 61 µM (top of the series)) 7.33% | viability change, negative = cytotoxic ([3]; at 61 µM (top of the series)) 11.1% | activity, negative = cytotoxic [11] 7.43% | activation [19] -0.451% | activity change, negative = cytotoxicity [20] -6.28% | activity, negative = cytotoxicity [4] -8.95% | activity change, negative = inhibition [6] -4.92% | viability change, negative = cytotoxic [7] 16.3% | activation [8] -4.09% | activity change, negative = cytotoxicity [9] -4.36% | activity change, negative = cytotoxicity [5] 0.331% | activity, negative = inhibition ([10]; at 92.4 µM (top of the series)) 4.64% | activation [12] -0.709%
